## AlphaSeq binding of Ab-14 light chain variants to a spike HR2 peptide

The target is the same throughout: PDVDLGDISGINAS, from the HR2 region of SARS-CoV-2 spike.

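Phage display of a naive human antibody library on the peptide gave the parent. Designed CDR sequences, proposed from the first random library and measured here. Several design methods are mixed in this list. Affinity was read by AlphaSeq, a pooled yeast mating assay with surface-displayed partners. After mating in shaken culture at 30 °C for 16 h, diploids were selected and their barcode pairs sequenced. A regression on co-assayed BCL2-family reference pairs converts the normalised counts of each replicate to an apparent Kd. Each pool was mated in six replicate cultures.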

The variants keep the heavy chain, the linker and the frameworks of Ab-14 (scFv order VH, a 15-residue (Gly4Ser)3 linker, VL).
VH: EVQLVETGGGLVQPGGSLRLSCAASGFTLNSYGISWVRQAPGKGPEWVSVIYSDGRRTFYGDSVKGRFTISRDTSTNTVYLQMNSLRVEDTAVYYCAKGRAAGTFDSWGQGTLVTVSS
VL: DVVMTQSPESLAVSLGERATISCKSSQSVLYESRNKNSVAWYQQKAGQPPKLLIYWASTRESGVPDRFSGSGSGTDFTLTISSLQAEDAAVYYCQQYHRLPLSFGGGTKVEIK

The parent's light chain CDRs are KSSQSVLYESRNKNSVA, WASTRES, QQYHRLPLS; each variant's own CDRs replace them letter for letter. Each Kd is an estimate from the mating assay, the geometric mean of the replicates in which the pair was seen; lower is stronger. Where no diploid with the target was found in any replicate, the entry reads "nd": below detection, most likely a poor binder, though not proof of it.

For TISQMLLMQTSHKNSVA / GEETRYS / QQYARLPLS, the assay gave 1.1 nM (6 of 6 replicates; controls 1 of 18).
For KMSQSQLVESRNKNSVA / EASTRES / QQYHRLPLS, the assay gave 550 pM (6 of 6 replicates; controls 0 of 18).
For KFSQMSNQFSVSMNAVA / EMTTREE / QQYNRLPLA, the assay gave 2.1 nM (6 of 6 replicates; controls 0 of 18).
For KLLQSTVIESFNKNNVA / EMTTRES / QSYDRLPLS, the assay gave 310 nM (2 of 6 replicates; controls 0 of 18).
For KLDQMCVYESRNKNSVA / NASTRES / QQYHRLPLS, the assay gave 2.1 nM (6 of 6 replicates; controls 1 of 18).
For KFSGSWGMESRNKNSVA / NASHRMS / QQYHRLPLS, the assay gave 5.8 nM (6 of 6 replicates; controls 0 of 18).
For KAEQSVLYESRNKNSVA / GASTRES / QQYHRLPLS, the assay gave 520 pM (6 of 6 replicates; controls 0 of 18).
For KITQIFSPYGNSWHSVA / NANTLAH / QQYYMLPLM, the assay gave 10 nM (6 of 6 replicates; controls 3 of 18).
For KSSYSGLYESRNKNSVA / EASTRES / QQYHRLPLS, the assay gave 520 pM (6 of 6 replicates; controls 0 of 18).
For SLAESAVMESRNKNSVA / DNSTRES / QHYDRLPLS, the assay gave nd (0 of 6 replicates; controls 0 of 18).
For DFALIQDSMGEAKNSIA / DRNTKAH / QQYSRLPLV, the assay gave 2.3 nM (6 of 6 replicates; controls 1 of 18).
For SVTIEMDQQQEQYNSVA / GEQKTVD / QQYGRLPLS, the assay gave nd (0 of 6 replicates; controls 1 of 18).
For KFMQSMGYESRNQNNVA / DASTRMS / QQYHRLPLS, the assay gave 580 pM (6 of 6 replicates; controls 0 of 18).
For KYEQQELTESRNKNSVA / NASTRES / QQYHQLPLS, the assay gave 2.1 nM (6 of 6 replicates; controls 1 of 18).
For KLSQSVLYESRNKNSVA / SASTREE / QQYHRLPLS, the assay gave 570 pM (6 of 6 replicates; controls 0 of 18).
For KSSPSYHYESRNKNSVA / GASTRES / QQYHRLPLS, the assay gave 4.1 nM (6 of 6 replicates; controls 1 of 18).
For KSSQSVLFESRNKNSVA / DASTRES / QSYHRLPLS, the assay gave 1.7 nM (6 of 6 replicates; controls 0 of 18).
For KLSQSVWYESRLKNSVA / EASTRMY / QQYHRLPLA, the assay gave 1.2 nM (6 of 6 replicates; controls 1 of 18).
For KSSQSVLYESTNKNSVA / KASTRES / QQYHRLPLS, the assay gave 8.2 nM (6 of 6 replicates; controls 0 of 18).
For KQSQAFLEESRNKNSVA / DANTRES / QQYHRLPLS, the assay gave 660 nM (1 of 6 replicates; controls 0 of 18).
For KSSQSVLYESWNKNSVA / TASTRES / QQYHRLPLS, the assay gave 2.7 nM (6 of 6 replicates; controls 0 of 18).
For KSSQSCLYESENKNSVA / WASTRES / QQYTRLPLS, the assay gave 13 nM (1 of 6 replicates; controls 0 of 18).
For KSSQSVMYESRTSNSVA / WASTRES / QQYHRLPLS, the assay gave 76 nM (3 of 6 replicates; controls 0 of 18).
For KSQQSWLYESRNKNSVA / NASTRED / QQYHRLPLS, the assay gave 170 nM (3 of 6 replicates; controls 1 of 18).

Continued, with the values leading:

Result 6.7 nM (6 of 6 replicates; controls 0 of 18), variant RLKCTSLEHGRQNNAIA / AAAKLVT / QQYARLPLT.
Result 9.3 nM (5 of 6 replicates; controls 0 of 18), variant KSSISVSYESRNKNNVA / WASTRES / QQYHRLPLS.
Result 1.4 nM (6 of 6 replicates; controls 0 of 18), variant KLNISVGYEQRNKNSVA / EASTRED / QQYHRLPLS.
Result 990 pM (6 of 6 replicates; controls 0 of 18), variant KLSQSELYESRMKNSVA / NASQRMS / QQYHRLPLS.
Result 11 nM (6 of 6 replicates; controls 0 of 18), variant KLMMSTLYESRNKNSVA / WASTRES / QQYHRLPLS.
Result 660 pM (6 of 6 replicates; controls 1 of 18), variant KVDQEWDYGSRNKNSVA / NASQRER / QQYHRLPLS.
Result 290 pM (6 of 6 replicates; controls 1 of 18), variant KVSQSMLYESRNANSVA / NASQREE / QQYHRLPLS.
Result 6.7 nM (6 of 6 replicates; controls 2 of 18), variant KFSQSVCYEDRVKNSVA / NASDRMS / QQYHRLPLS.
Result 6.4 nM (6 of 6 replicates; controls 0 of 18), variant KIQQEHVGYNKKMEAIA / QGDQRCH / QSYDRLPLS.
Result 9.7 nM (6 of 6 replicates; controls 0 of 18), variant ALTFPEESVDHHMNNIA / STEKLCM / QQYARLPLS.
Result 3.5 nM (6 of 6 replicates; controls 0 of 18), variant KLQQSELYESRNKNSVA / SASTRSS / QQYHRLPLS.
Result 1.6 nM (6 of 6 replicates; controls 1 of 18), variant KVSQSWLPESRNKNSVA / EASTRQS / QQYHRLPLS.
Result 17 nM (6 of 6 replicates; controls 1 of 18), variant NLAMALDQGILIKNNIA / SDNLREN / QQYERLPLI.
Result 2.6 nM (6 of 6 replicates; controls 3 of 18), variant KSLQSVLYESGNKNSVA / HASTRLD / QQYHRLPLS.
Result 5.9 nM (6 of 6 replicates; controls 0 of 18), variant KLTSITGTEKVKGNNVA / EMETREE / QQYNRLPLS.
Result 1.4 nM (6 of 6 replicates; controls 0 of 18), variant KSSWSWLYESRNKNSVA / GASFRES / QQYHRLPLS.
Result 1.5 nM (6 of 6 replicates; controls 3 of 18), variant KSSISVLYESRNENSVA / EASTREQ / QQYHRLPLS.
Result 1.7 nM (6 of 6 replicates; controls 0 of 18), variant KESQSVLFEDRNKNSVA / DASTRES / QQYHRLPLS.
Result 220 nM (2 of 6 replicates; controls 0 of 18), variant KHSQSVLYESRNKNSVA / WASTRES / QQYHRLPLS.
Result 39 nM (6 of 6 replicates; controls 0 of 18), variant KLSFMSSYLSVNKNSVA / EMTTREN / QQYDRLPLS.
Result 1.2 nM (6 of 6 replicates; controls 4 of 18), variant FLEQSTLYESRNKNSVA / NASLRCS / QQYHRLPLS.
Result 22 nM (6 of 6 replicates; controls 0 of 18), variant TLYGLTNSMSKNKDNVA / EMSTREA / QQYDRLPLV.
Result 4.7 nM (6 of 6 replicates; controls 0 of 18), variant HVSQSKLQGQRNKNSVA / EASTRER / QQYHRLPLS.
Result 16 nM (6 of 6 replicates; controls 0 of 18), variant KLSEIAHFESRKKNSVA / ENSTREE / QQYDHLPLS.

A selection of 7 entries from above:

Variant HVSQSKLQGQRNKNSVA / EASTRER / QQYHRLPLS gave 4.7 nM (6 of 6 replicates; controls 0 of 18).
Variant TLYGLTNSMSKNKDNVA / EMSTREA / QQYDRLPLV gave 22 nM (6 of 6 replicates; controls 0 of 18).
Variant RLKCTSLEHGRQNNAIA / AAAKLVT / QQYARLPLT gave 6.7 nM (6 of 6 replicates; controls 0 of 18).
Variant KLMMSTLYESRNKNSVA / WASTRES / QQYHRLPLS gave 11 nM (6 of 6 replicates; controls 0 of 18).
Variant KQSQAFLEESRNKNSVA / DANTRES / QQYHRLPLS gave 660 nM (1 of 6 replicates; controls 0 of 18).
Variant KSQQSWLYESRNKNSVA / NASTRED / QQYHRLPLS gave 170 nM (3 of 6 replicates; controls 1 of 18).
Variant KLQQSELYESRNKNSVA / SASTRSS / QQYHRLPLS gave 3.5 nM (6 of 6 replicates; controls 0 of 18).

Values of this round are not directly comparable with the first-round values of the same sequences. In the paper, a design with two or fewer of six values counts as a poor binder. As a blank, each scFv also met three strains without target: over all light chain designs, 4% of these pairings were detected, typically at 430 nM and seldom below 38 nM. The control count says in how many pairings with the empty strains this scFv gave a signal.

Values reported by Li et al. 2023, doi:10.1038/s41467-023-39022-2 (FLAb copy).